Reference: BindingDB's records for doi:10.1046/j.1460-9568.2003.02744.x (University of Innsbruck, 2003)

Sequences of proteins named here, by UniProt entry; tags and fusion partners are left off.
UniProt P33535, whole entry: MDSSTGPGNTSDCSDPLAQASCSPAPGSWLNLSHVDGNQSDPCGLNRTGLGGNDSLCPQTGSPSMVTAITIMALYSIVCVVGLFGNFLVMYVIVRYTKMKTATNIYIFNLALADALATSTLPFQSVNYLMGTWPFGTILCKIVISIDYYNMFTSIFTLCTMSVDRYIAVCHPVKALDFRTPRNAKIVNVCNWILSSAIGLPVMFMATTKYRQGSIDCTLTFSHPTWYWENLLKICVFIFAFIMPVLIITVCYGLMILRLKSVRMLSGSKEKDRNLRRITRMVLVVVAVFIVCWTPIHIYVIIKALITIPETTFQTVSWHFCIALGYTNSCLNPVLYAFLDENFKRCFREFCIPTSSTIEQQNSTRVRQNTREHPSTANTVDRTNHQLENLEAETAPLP

Target: Mu-type opioid receptor (Rattus norvegicus, UniProt P33535)

C[C@@H](NC(=O)[C@@H](N)Cc1ccc(O)cc1)C(=O)NCC(=O)N(C)[C@@H](Cc1ccccc1)C(=O)NCCO [CAS_100929-53-1]
Ki: 1.72 nM
